{"sequences": {"note": "Chains of the proteins cited; added tags and fusions are not shown.", "UniProt P14618, whole entry, looked up": "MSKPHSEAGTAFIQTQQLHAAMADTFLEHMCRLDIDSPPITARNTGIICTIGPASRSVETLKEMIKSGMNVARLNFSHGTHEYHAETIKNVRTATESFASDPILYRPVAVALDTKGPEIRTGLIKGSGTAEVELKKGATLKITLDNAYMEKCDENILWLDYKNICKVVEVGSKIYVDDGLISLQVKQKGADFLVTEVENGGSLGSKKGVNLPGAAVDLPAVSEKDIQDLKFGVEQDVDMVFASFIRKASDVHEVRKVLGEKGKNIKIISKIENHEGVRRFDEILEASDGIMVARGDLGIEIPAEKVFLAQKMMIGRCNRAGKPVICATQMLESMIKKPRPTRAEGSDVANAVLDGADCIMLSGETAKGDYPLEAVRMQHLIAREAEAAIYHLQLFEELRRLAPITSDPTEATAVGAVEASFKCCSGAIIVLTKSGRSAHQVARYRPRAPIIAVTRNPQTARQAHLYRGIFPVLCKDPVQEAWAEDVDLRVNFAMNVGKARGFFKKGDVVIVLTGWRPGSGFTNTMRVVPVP"}, "source": "PubChem BioAssay AID1631", "about": "(National Center for Advancing Translational Sciences (NCATS), 2009)", "note": "Only a part is listed here, and it is no random draw. Calls of active or inactive are those of the source. Calls follow the shape of the dose curve; as a rule, active = well fitted activation curve with a large enough effect; inconclusive = small, poorly fitted or top-dose-only effect; inactive = no such curve, though single readings can be large or run the other way. % is scaled to controls: 0 for no effect and ±100 for the full control effect."}
{"target": "Pyruvate kinase PKM (Homo sapiens) (UniProt P14618)", "test": "qHTS Assay for Activators of Human Muscle isoform 2 Pyruvate Kinase; also: nearly all actives have a fitted effect of over 55% in size", "conditions": "purified PKM2, Kinase-Glo ATP luminescence, 0% is enzyme alone, no compound; at 57.5 µM (top of the series)", "excerpt": "NIH Chemical Genomics Center [NCGC] Matthew G. Vander Heiden, M.D., Ph.D. [Harvard Medical School, 77 Avenue Louis Pasteur, Boston, MA 02115] MLPCN Grant: 1 R03 MH085679-01 NCGC Assay Overview: Human pyruvate kinase muscle 2 (hPK-M2) enzyme was supplied as a highly purified (>95% pure) preparation from Harvard Medical School and assayed for its ability to generate ATP from ADP using phosphoenolpyruvate (PEP) as a substrate. ATP generation was detected in a coupled reaction by luciferase-mediated luminescence, an ATP-dependent process. […] The enzyme was assayed at an intermediate level of activity to screen for both inhibitors and activators.\nNCGC Assay Protocol Summary: Three uL of substrate mix (at r.t.) in assay buffer (50 mM Imidazole pH7.2, 50 mM KCl, 7 mM MgCl2, 0.01% Tween 20, 0.05% BSA) was dispensed into white solid bottom 1,536 well microtiter plates so that the final concentrations of substrates in the assay were 0.1 mM ADP and 0.5 mM PEP. 23 nL of compound were delivered by a pin tool and 1 uL of enzyme mix in assay buffer (4 degree Celsius) was added. Plates were incubated at room temperature for 1 hour. Two uL of detection mix (Kinase-Glo, Promega; at 4 degree Celsius protected from light) was added and luminescence read by a ViewLux (Perkin Elmer) at 5 second exposure/plate. Data were normalized to the uninhibited and AC100 inhibition (no enzyme). To monitor activation, the first column contained a titration of the activator, NCGC00031955-01 (16-point 1:2 dilutions in duplicate starting at 57 uM) and the first 16 rows of column 4 contained 57 uM of NCGC00031955-01."}
{"smiles": "Cc1ccc(NCCc2c([N+](=O)[O-])cc([N+](=O)[O-])cc2[N+](=O)[O-])cc1", "activation": "inactive: -1.01%"}
{"smiles": "CCCOP(=S)(Nc1nc(N)cc(=O)[nH]1)OCCC", "activation": "inactive: -9.04%"}
{"smiles": "Nc1ccccc1[As](=O)(O)c1ccccc1", "activation": "inactive: 0.261%"}
{"smiles": "O=C(O)COc1ccc([As](=O)(O)O)cc1[N+](=O)[O-]", "activation": "inactive: 13.5%"}
{"smiles": "CCOP1(=S)c2c(C)nn(CCC#N)c2N=C(c2ccccc2F)N1C", "note": "(centres undefined)", "activation": "inactive: 0.0695%"}
{"smiles": "O=P(Nc1nccs1)(c1ccccc1)c1nc2ccccc2s1", "note": "(centres undefined)", "activation": "inactive: -68.1%"}
{"smiles": "O=P(Nc1nccs1)(Oc1ccccc1)Oc1ccccc1", "activation": "inactive: -11.7%"}
{"smiles": "CS(=O)(=O)c1cc([N+](=O)[O-])c2no[n+]([O-])c2c1", "activation": "inactive: -67.5%"}
{"smiles": "CCOP1(=S)c2c(C)nn(CCC#N)c2N=C(c2ccc(F)cc2)N1C", "note": "(centres undefined)", "activation": "inactive: 0.518%"}
{"smiles": "CN(C(=O)Cc1ccccc1)[C@@H]1CC[C@]2(CCCO2)C[C@H]1N1CCCC1", "activation": "inactive: -8.26%"}
{"smiles": "O=[N+]([O-])c1ccc2c(c1)nnn2O", "activation": "inactive: -0.288%"}
{"smiles": "NC(=O)Nc1ccc([As](=O)(O)O)cc1", "activation": "inactive: -0.974%"}
{"smiles": "CN(C)C1(CNC(=O)c2ccc(S(C)(=O)=O)cc2)CCCCC1", "activation": "inactive: -2.16%"}
{"smiles": "O=C(/C=C/c1ccccc1)OC1CN2CCC1CC2", "note": "(centres undefined)", "activation": "inactive: -0.203%"}
{"smiles": "Cc1nn(-c2ccccc2)c2c1P(=O)(N1CCOCC1)N(C)C(c1ccccc1)=N2", "note": "(centres undefined)", "activation": "inactive: -1.36%"}
{"smiles": "CC1CCC(C(C)C)C(OP(=O)(Nc2ccccn2)c2ccccc2)C1", "note": "(centres undefined)", "activation": "inactive: 0.574%"}
{"smiles": "Nc1cccc([As](=O)(O)c2ccccc2)c1", "activation": "inactive: 3.72%"}
{"smiles": "O=P1(Nc2ccc(Br)cn2)COc2ccccc2OC1", "activation": "inactive: 4.08%"}
{"smiles": "O=[As](O)(c1cccs1)c1cccs1", "activation": "inactive: -4.75%"}
{"smiles": "Cc1ccc(OCC(=O)OC2CN3CCC2CC3)cc1", "note": "(centres undefined)", "activation": "inactive: -1.06%"}
{"smiles": "O=P1(Nc2ncccn2)COc2ccccc2OC1", "activation": "inactive: -15.9%"}
{"smiles": "Clc1n[nH]nc1-c1nn[nH][15n]1", "activation": "inactive: -20.4%"}
{"smiles": "CC(C)(C)C(=O)NC(Sc1ncccn1)C(Cl)(Cl)Cl", "note": "(centres undefined)", "activation": "inactive: 3.31%"}
{"smiles": "O=P1(Nc2ccccn2)COc2ccccc2OC1", "activation": "inactive: 0.0678%"}
{"smiles": "CCC1=CC2Cc3nc4ccc(Cl)cc4c(N)c3C(C1)C2", "note": "(centres undefined)", "activation": "inactive: 16.6%"}
{"smiles": "CCOP(=O)(Nc1ccc(C)cn1)OCC", "activation": "inactive: -1.05%"}
{"smiles": "CC(C)/C=N\\N=C(\\N)N[N+](=O)[O-]", "activation": "inactive: -0.212%"}
{"smiles": "CN(C(=O)Cc1ccc(Cl)c(Cl)c1)[C@@H]1CCCC[C@H]1N1CCCC1", "activation": "inactive: 2.93%"}
{"smiles": "O=[As](O)(c1ccccc1Br)c1ccccc1Br", "activation": "inactive: -5.6%"}
